Results published in patent US20260193238A1, “PHARMACEUTICAL COMPOUNDS AS PARP7 AND/OR PARP1 INHIBITORS” (Duke Street Bio Limited, priority 2022, published 2026).

Sequences of proteins named here, by UniProt entry; tags and fusion partners are left off. Residues count along the entry.
UniProt P09874, whole entry: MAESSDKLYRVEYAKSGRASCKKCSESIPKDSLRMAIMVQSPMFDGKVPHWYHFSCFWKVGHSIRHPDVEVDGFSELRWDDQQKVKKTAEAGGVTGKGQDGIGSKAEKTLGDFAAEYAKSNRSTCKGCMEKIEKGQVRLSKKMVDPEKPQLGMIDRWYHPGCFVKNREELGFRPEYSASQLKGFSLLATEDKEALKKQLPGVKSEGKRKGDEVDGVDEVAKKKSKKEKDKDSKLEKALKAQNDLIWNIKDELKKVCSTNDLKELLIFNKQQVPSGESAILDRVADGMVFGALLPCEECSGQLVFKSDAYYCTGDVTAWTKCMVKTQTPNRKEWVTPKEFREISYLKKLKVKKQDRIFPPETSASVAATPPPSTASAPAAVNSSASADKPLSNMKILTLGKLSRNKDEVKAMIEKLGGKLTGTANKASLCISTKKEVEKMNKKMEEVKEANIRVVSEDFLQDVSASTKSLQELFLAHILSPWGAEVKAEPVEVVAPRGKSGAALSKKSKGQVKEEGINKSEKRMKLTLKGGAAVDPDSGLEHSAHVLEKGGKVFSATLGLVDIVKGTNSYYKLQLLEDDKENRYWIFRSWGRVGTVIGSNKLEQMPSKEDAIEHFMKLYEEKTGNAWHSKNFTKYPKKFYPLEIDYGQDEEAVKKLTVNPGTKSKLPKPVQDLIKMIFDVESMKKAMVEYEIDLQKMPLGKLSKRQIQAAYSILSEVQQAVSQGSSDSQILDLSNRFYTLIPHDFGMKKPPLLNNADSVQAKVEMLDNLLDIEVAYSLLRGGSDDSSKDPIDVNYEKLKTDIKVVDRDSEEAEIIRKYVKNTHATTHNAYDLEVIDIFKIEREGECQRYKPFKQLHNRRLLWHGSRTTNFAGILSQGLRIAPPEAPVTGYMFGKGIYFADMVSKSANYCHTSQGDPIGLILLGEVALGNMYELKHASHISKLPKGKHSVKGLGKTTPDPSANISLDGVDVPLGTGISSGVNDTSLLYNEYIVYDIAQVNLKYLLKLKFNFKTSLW
UniProt Q7Z3E1, 456-657 limits assumed: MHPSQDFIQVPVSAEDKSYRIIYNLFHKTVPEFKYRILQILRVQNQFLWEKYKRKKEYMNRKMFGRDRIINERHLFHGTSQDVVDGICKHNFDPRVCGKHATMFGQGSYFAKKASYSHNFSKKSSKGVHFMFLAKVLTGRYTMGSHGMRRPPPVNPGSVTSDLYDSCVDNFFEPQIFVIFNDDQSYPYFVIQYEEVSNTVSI

How the values were obtained:
[1] = molecular target: PARP1 (Homo sapiens, UniProt P09874); assay: PARP1 biochemical DELFIA assay (auto-PARylation); conditions: read-out: PARP1 activity
[2] = molecular target: PARP7 (amino acids 456-657) (Homo sapiens, UniProt Q7Z3E1); assay: PARP7 biochemical DELFIA assay (auto-MARylation); conditions: read-out: PARP7 activity

SMILES | IC50 ([1]; Table 1A) [µM] | IC50 ([2]; Table 1A) [µM] | IC50 ([1]; Table 1) [µM] | IC50 ([2]; Table 1) [µM]
CC1(c2cc(C(F)(F)F)c(=O)[nH]n2)CCCN1CC(=O)N1CCN(c2ncc(C(F)(F)F)cn2)CC1 (racemic) | 0.01 to 0.1 | < 0.01 |  | 
CNC(=O)c1ccc(N2CCN(C(=O)CCN3CCCC(c4cc(C(F)(F)F)c(=O)[nH]n4)C3)CC2)cn1 (racemic) |  |  | 0.1 to 1 | 1 to 10
Cc1cc(C2CCCN2CC(=O)N2CCN(c3ncc(C(F)(F)F)cn3)CC2)n[nH]c1=O (racemic) | 0.1 to 1 | 0.01 to 0.1 |  | 
N#Cc1cnc(N2CCN(C(=O)CCN3CCCC(c4cc(C(F)(F)F)c(=O)[nH]n4)C3)CC2)nc1 (racemic) |  |  | 0.1 to 1 | 0.1 to 1
O=C(CN1CCC1c1cc(C(F)(F)F)c(=O)[nH]n1)N1CCN(c2ncc(C(F)(F)F)cn2)CC1 (racemic) | 0.01 to 0.1 | < 0.01 |  | 
O=C(CN1CCCCC1c1cc(C(F)(F)F)c(=O)[nH]n1)N1CCN(c2ncc(C(F)(F)F)cn2)CC1 (racemic) |  |  | 1 to 10 | 0.1 to 1
O=C(CN1CCCC1c1cc(C(F)(F)F)c(=O)[nH]n1)N1CCN(c2ncc(C(F)(F)F)cc2F)CC1 (single isomer, unassigned) [89a] | 0.1 to 1 | < 0.01 |  | 
O=C(CN1CCCC1c1cc(C(F)(F)F)c(=O)[nH]n1)N1CCN(c2ncc(C(F)(F)F)cc2F)CC1 (single isomer, unassigned) [89b] | 1 to 10 | 0.1 to 1 |  | 
O=C(CN1CCCC1c1cc(C(F)(F)F)c(=O)[nH]n1)N1CCN(c2nc3cc(F)ccc3o2)CC1 (single isomer, unassigned) [93a] | < 0.01 | < 0.01 |  | 
O=C(CN1CCCC1c1cc(C(F)(F)F)c(=O)[nH]n1)N1CCN(c2nc3cc(F)ccc3[nH]2)CC1 (single isomer, unassigned) [108a] | 0.01 to 0.1 | < 0.01 |  | 
O=C(CN1CCCC1c1cc(C(F)(F)F)c(=O)[nH]n1)N1CCN(c2nc3cc(F)ccc3[nH]2)CC1 (single isomer, unassigned) [108b] | 1 to 10 | 0.1 to 1 |  | 
O=C(CN1CCCC1c1cc(C(F)(F)F)c(=O)[nH]n1)N1C2CCC1CN(c1ncc(C(F)(F)F)cn1)C2 (single isomer, unassigned) [109a] | 0.01 to 0.1 | < 0.01 |  | 
O=C(CN1CCCC1c1cc(C(F)(F)F)c(=O)[nH]n1)N1C2CCC1CN(c1ncc(C(F)(F)F)cn1)C2 (single isomer, unassigned) [109b] | > 10 | 1 to 10 |  | 
O=C(CN1CCCC1c1cc(C(F)(F)F)c(=O)[nH]n1)N1CCN(c2ncc(C(F)F)cn2)CC1 (single isomer, unassigned) [112a] | 0.01 to 0.1 | < 0.01 |  | 
O=C(CN1CCCC1c1cc(C(F)(F)F)c(=O)[nH]n1)N1CCN(c2ncc(C(F)F)cn2)CC1 (single isomer, unassigned) [112b] | 1 to 10 | 0.1 to 1 |  | 
N#Cc1ccc2oc(N3CCN(C(=O)CN4CCCC4c4cc(C#N)c(=O)[nH]n4)CC3)nc2c1 (single isomer, unassigned) [129a] | 0.1 to 1 | 0.01 to 0.1 |  | 
N#Cc1ccc2oc(N3CCN(C(=O)CN4CCCC4c4cc(C#N)c(=O)[nH]n4)CC3)nc2c1 (single isomer, unassigned) [129b] | > 10 | > 10 |  | 
N#Cc1cc(C2CCCN2CC(=O)N2CCN(c3nc4ccc(Cl)cc4o3)CC2)n[nH]c1=O (single isomer, unassigned) [130a] | 0.01 to 0.1 | < 0.01 |  | 
N#Cc1cc(C2CCCN2CC(=O)N2CCN(c3nc4ccc(Cl)cc4o3)CC2)n[nH]c1=O (single isomer, unassigned) [130b] | 1 to 10 | 1 to 10 |  | 
N#Cc1cnc(N2CCN(C(=O)CN3CCCC3c3cc(C(F)(F)F)c(=O)[nH]n3)CC2)c(Cl)c1 (single isomer, unassigned) [143a] | 0.1 to 1 | < 0.01 |  | 
N#Cc1cnc(N2CCN(C(=O)CN3CCCC3c3cc(C(F)(F)F)c(=O)[nH]n3)CC2)c(Cl)c1 (single isomer, unassigned) [143b] | 1 to 10 | 1 to 10 |  | 

Like-named read-outs stand apart in the source and are kept apart here.
